Bioassay records: PubChem, National Center for Advancing Translational Sciences (NCATS)
JMJD2E inh – blocks human JMJD2E demethylase activity | B2RXH2 | JMJD2E catalytic domain, FDH-coupled NADH fluorescence (FDH is formaldehyde dehydrogenase) | Potency, µM (top dose mostly 57.1 µM), for inactives: top-dose activity change, negative = inhibition, usual class: inhibitors | actives 1.6% (n = 230,000); active means well fitted inhibition curve with a large enough effect, not every such curve was filed as active; inconclusive means small, poorly fitted or top-dose-only effect, or another doubt; inactive means no such curve, though single readings can be large or run the other way;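 further: potency means the concentration at half of the fitted maximal effect; 0% = wells with enzyme and -100% = buffer wells without enzyme; nearly all actives have a fitted effect of over 50% in size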
Lamin A splicing – changes lamin A minigene splicing in HeLa cells; AID 1487; HeLa LMNA splicing GFP/RFP minigene ratio, 48 h; Potency, µM (top dose mostly 46.1 µM), without a hit: at the top dose ratio change, negative = inhibition, actives largely listed as inhibitors; actives 0.01% (n = 200,000); active means well fitted inhibition curve with a large enough effect in the signal ratio, with a control signal flat, not every such curve was filed as active; inconclusive means small, poorly fitted or top-dose-only effect, or effect the other way, or a change in a side signal; the % refers to the signal ratio; further: potency means the concentration at half of the fitted maximal effect; on the % scale 0 is the no-effect control and ±100 the full control effect
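S3 HeLa stable clones carrying a lamin A-EGFP splicing minigene plus DsRed2 were seeded at 600 cells/well in Opti-MEM with 2% FBS, pin-dosed and incubated 48 h at 37°C. Acumen cytometry (488 nm) gave the GFP/RFP total-intensity ratio.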
ALDH1A1 block – inhibitors of human aldehyde dehydrogenase 1A1 | Purified ALDH1A1, NADH fluorescence, propionaldehyde substrate | Potency, µM (titrated, usually from 75.3 µM), without a hit: at the highest dose activity, negative = inhibition, actives largely listed as inhibitors | actives 7.3% (n = 220,000); active means well fitted inhibition curve with a large enough effect, not every such curve was filed as active; inconclusive means small, poorly fitted or top-dose-only effect, or another doubt; inactive means no such curve, though single readings can be large or run the other way;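 further: potency means the concentration at half of the fitted maximal effect; plate controls were no enzyme wells and a reference inhibitor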
miR-21 reporter – miR-21 reporter, rising signal | HeLa miR-21 FLuc reporter, luciferase, 48 h | Potency, µM (top dose mostly 38.3 µM), inactives show at the highest dose reporter change, positive = more light | 340,000 tested, under 10 active | AID 2288; active = well fitted rising curve with a large enough effect; inconclusive = small, poorly fitted or top-dose-only effect; inactive = no such curve, though single readings can be large or run the other way;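 note: % of control where 0% means no effect; miR-21 action dims this reporter so a rising signal means less miR-21 action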
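Luminescence from a firefly luciferase reporter carrying a miR-21 binding site downstream, stably expressed under a CMV promoter in HeLa cells that make miR-21 endogenously, reports miRNA modulation after 48 h compound exposure up to approximately 40uM final.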
Sfp inh – inhibitors of Bacillus subtilis Sfp phosphopantetheinyl transferase | Biochemical Sfp PPTase activity, qHTS | AID 1490 | Potency, µM, for the others: max response, negative = inhibition, hits mostly inhibitors | actives 3.5% (n = 310,000) | Q9F4F7; active = well fitted inhibition curve with a large enough effect; inconclusive = small, poorly fitted or top-dose-only effect, or another doubt; inactive = no such curve, though single readings can be large or run the other way;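 also: the enzyme is Sfp with the accession as filed and its product quenches rhodamine fluorescence; potency is read from the fitted curve at half-maximal effect; 0% = enzyme reaction without inhibitor and -100% = no enzyme wells; top concentration of the series not given in the record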
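Buffer: 50 mM Hepes-Na pH 7.6, 10 mM MgCl2, 0.01% Nonidet P-40, 0.01% BSA. Enzyme 15 nM, pre-exposed to compound 15 min; substrates then added and fluorescence change tracked over 30 min.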
G9a inh – inhibitors of human histone lysine methyltransferase G9a | G9a H3K9 monomethylation, AlphaScreen, 2 h | actives 8.8% (n = 350,000) | Q96KQ7 | Potency, µM (doses to about 102 µM), for the others: at the highest dose activity, negative = inhibition, actives largely listed as inhibitors | AID 504332; further: potency means the concentration at half of the fitted maximal effect; on the % scale 0 is the no-effect control and ±100 the full control effect; nearly all actives have a fitted effect of over 75% in size
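G9a (20 nM) was preincubated 15 min with compound, then reacted 2 h at room temperature with 500 nM biotin-H3K9 peptide and 20 µM SAM. Monomethyl-H3K9 detected by AlphaScreen using anti-H3K9me1 antibody.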
Starred values were filed as active, the others as inactive; [ ] = remark or other dose. Compounds with a hit are over-represented: about 13% of the library has one in this group of screens. Unless noted, the call rests on the fitted dose curve; in most records, active means well fitted curve in the direction sought with a large enough effect; inconclusive means small, poorly fitted or top-dose-only effect, or another doubt; inactive means no such curve, though single readings can be large; an effect the other way counts as inactive or inconclusive.

What do the screens show for `O=C1Nc2ccc(C(F)(F)F)cc2N2CCCC12` (stereo unspecified)?
miR-21 reporter: -4.6%; Sfp inh: 9.7%; G9a inh: 11.2µM*

Results for COC(=O)c1ccc(NC(=O)c2ccc3c(c2)NC(=O)C2CCCN32)cc1 (stereo unspecified) ?
G9a inh: 10µM*

What do the screens show for `O=C1Nc2ccccc2N2CCCC12` (stereo unspecified)?
JMJD2E inh: inconclusive; Lamin A splicing: 10.4%[46 µM]; ALDH1A1 block: inconclusive; miR-21 reporter: -1.0%; Sfp inh: -10.7%; G9a inh: 20µM*

Results for O=C1Nc2cc(S(=O)(=O)N3CCCC3)ccc2N2CCCC12 (stereo unspecified) ?
JMJD2E inh: 0.9%; Lamin A splicing: -7.7%; ALDH1A1 block: inconclusive; miR-21 reporter: -0.2%; Sfp inh: -28.8%; G9a inh: 22.4µM*

What do the screens show for `O=C1Nc2ccccc2C(=O)N2CCC[C@@H]12`?
JMJD2E inh: 11.5%; ALDH1A1 block: 10.8%; Sfp inh: 0.2%

Results for CCN(CC)S(=O)(=O)c1ccc2c(c1)NC(=O)C1CCCN21 (stereo unspecified) ?
miR-21 reporter: 5.7%; Sfp inh: -0.9%; G9a inh: -6.6%

How did CC1CCc2sc(NC(=O)C3CC(Cl)=CCC3C(=O)O)c(C#N)c2C1 (stereo unspecified) do in these assays?
JMJD2E inh: 3.6%; Lamin A splicing: -6.0%[46 µM]; ALDH1A1 block: -12.0%; miR-21 reporter: 1.3%; Sfp inh: 17.8%; G9a inh: -10.7%

Results for O=C1Nc2cc(C(F)(F)F)ccc2N2CCCCC12 (stereo unspecified) ?
miR-21 reporter: -0.3%; Sfp inh: 5.6%; G9a inh: 50.1µM*

What do the screens show for `O=C1Nc2cc(Cl)cnc2N2CCCC12` (stereo unspecified)?
JMJD2E inh: inconclusive; Lamin A splicing: -10.9%; ALDH1A1 block: inconclusive; miR-21 reporter: -6.1%; Sfp inh: 50.1µM*; G9a inh: 8.91µM*

Results for CCCN1C(=O)C(O)(C2COC(C)(C)CC2=O)c2ccccc21 (stereo unspecified) ?
JMJD2E inh: 11.7%; Lamin A splicing: 17.5%[46 µM]; ALDH1A1 block: 0.355µM*; miR-21 reporter: -0.6%; Sfp inh: 11.2%; G9a inh: 11.8%

What do the screens show for `CCCN1C(=O)C(O)(C2CC(=O)CC(C)(C)O2)c2ccccc21` (stereo unspecified)?
JMJD2E inh: 0.3%; Lamin A splicing: 6.8%; ALDH1A1 block: 0.794µM*; miR-21 reporter: 6.4%; Sfp inh: 16.3%; G9a inh: -35.2%[12.7 µM]

Results for CCN1C(=O)C(O)(C2COC(C)(C)CC2=O)c2cc(Br)ccc21 (stereo unspecified) ?
JMJD2E inh: 2.4%; Lamin A splicing: inconclusive; ALDH1A1 block: 8.91µM*; miR-21 reporter: inconclusive; Sfp inh: -2.5%; G9a inh: -4.0%[59 µM]

Gathered by group: the entries above with fluorine (two)
What do the screens show for `O=C1Nc2ccc(C(F)(F)F)cc2N2CCCC12` (stereo unspecified)?
miR-21 reporter: -4.6%; Sfp inh: 9.7%; G9a inh: 11.2µM*

Results for O=C1Nc2cc(C(F)(F)F)ccc2N2CCCCC12 (stereo unspecified) ?
miR-21 reporter: -0.3%; Sfp inh: 5.6%; G9a inh: 50.1µM*
